Data as given in US7435736B2, “Substituted 1-piperidin-4-yl-4-azetidin-3-yl-piperazine derivatives and their use as neurokinin antagonists” (Janssen Pharmaceutica, N.V., priority 2002, dated 2008).

By UniProt entry, the sequences of proteins in these tests, tags left out.
UniProt P25103, whole entry: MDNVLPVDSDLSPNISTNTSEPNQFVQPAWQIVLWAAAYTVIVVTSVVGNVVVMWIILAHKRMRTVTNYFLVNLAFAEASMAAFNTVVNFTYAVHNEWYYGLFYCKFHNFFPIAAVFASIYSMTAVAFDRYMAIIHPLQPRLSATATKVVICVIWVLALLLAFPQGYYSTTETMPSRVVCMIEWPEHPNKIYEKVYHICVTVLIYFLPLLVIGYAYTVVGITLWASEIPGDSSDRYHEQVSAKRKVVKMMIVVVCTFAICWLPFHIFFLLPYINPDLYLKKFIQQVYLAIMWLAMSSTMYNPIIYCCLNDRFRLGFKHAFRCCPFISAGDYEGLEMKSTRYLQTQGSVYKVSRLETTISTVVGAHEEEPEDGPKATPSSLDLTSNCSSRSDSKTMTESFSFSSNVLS
UniProt P21452, whole entry: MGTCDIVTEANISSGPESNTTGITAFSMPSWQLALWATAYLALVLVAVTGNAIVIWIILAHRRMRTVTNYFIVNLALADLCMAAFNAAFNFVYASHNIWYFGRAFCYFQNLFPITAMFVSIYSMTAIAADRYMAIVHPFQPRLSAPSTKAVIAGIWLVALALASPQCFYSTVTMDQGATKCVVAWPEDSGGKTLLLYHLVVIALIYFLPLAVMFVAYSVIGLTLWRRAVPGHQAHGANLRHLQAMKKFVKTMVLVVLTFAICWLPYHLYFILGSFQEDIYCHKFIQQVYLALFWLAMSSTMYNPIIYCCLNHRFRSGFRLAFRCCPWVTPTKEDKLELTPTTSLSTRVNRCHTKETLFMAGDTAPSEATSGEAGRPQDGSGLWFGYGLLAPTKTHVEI
UniProt P29371, whole entry: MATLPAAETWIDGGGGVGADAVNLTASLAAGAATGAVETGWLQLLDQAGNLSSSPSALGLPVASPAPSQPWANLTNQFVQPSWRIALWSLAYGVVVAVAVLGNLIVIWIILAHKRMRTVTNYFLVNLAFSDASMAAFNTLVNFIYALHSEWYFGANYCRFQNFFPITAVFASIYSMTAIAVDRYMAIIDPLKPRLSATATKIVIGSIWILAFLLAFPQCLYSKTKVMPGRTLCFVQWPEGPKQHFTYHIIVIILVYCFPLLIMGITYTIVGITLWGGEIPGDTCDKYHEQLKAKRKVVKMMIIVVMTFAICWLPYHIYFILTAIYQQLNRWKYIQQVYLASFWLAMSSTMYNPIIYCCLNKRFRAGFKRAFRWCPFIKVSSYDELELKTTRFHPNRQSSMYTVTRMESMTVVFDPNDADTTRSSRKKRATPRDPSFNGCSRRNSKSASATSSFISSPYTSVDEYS

How the values were obtained:
h-NK1 = h-NK1 (Homo sapiens, UniProt P25103); experiment: Signal transduction (ST), intracellular Ca++ FLIPR, NK1 antagonistic activity
Experimental: (§1) This test evaluates in vitro functional NK1, NK2 and NK3 antagonistic activity. For the measurements of intracellular Ca^++ concentrations the cells were grown on 96-well (black wall/transparent bottom) plates from Costar for 2 days until they reached confluence. The cells were loaded with 2 μM Fluo3 in DMEM containing 0.1% BSA and 2.5 mM probenecid for 1 h at 37° C. They were washed 3× with a Krebs buffer (140 mM NaCl, 1 mM MgCl2×6H2O, 5 mM KCl, 10 mM glucose, 5 mM HEPES; 1.25 mM CaCl2; pH 7.4) containing 2.5 mM probenecid and 0.1% BSA (Ca^++-buffer). The cells were preincubated with a concentration range of antagonists for 20 min at RT and Ca^++-signals after addition of the agonists were measured in a Fluorescence Image Plate Reader (FLIPR from Molecular Devices, Crawley, England). The peak of the Ca^++-transient was considered as the relevant signal and the mean values of corresponding wells were analysed as described below.
(§2) The sigmoidal dose response curves were analysed by computerised curve-fitting, using the GraphPad Program. The EC50-value of a compound is the effective dose showing 50% of maximal effect. For mean curves the response to the agonist with the highest potency was normalised to 100%. For antagonist responses the IC50-value was calculated using non-linear regression. […]

h-NK2 = h-NK2 (Homo sapiens, UniProt P21452); experiment: Signal transduction (ST), intracellular Ca++ FLIPR, NK2 antagonistic activity
Experimental: as §1, §2

h-NK3 = h-NK3 (Homo sapiens, UniProt P29371); experiment: Signal transduction (ST), intracellular Ca++ FLIPR, NK3 antagonistic activity
Experimental: as §1, §2

pIC50 h-NK1 (h-NK1): 7.46
pIC50 h-NK2 (h-NK2): 5.71
pIC50 h-NK3 (h-NK3): 5.44
Compound: CC(C)(C)OC(=O)N1CCC[C@H]1C(=O)N1CC(N2CCN([C@H]3CCN(C(=O)c4cc(C(F)(F)F)cc(C(F)(F)F)c4)[C@H](Cc4ccccc4)C3)CC2)C1
